Source: patent US20200339655A1, “METHODS FOR PRODUCING A MHC MULTIMER” (priority 2017, published 2020)

Amino acid sequences for entries named in this document (tags omitted). Residues count along the entry.
UniProt P01901, 22-295 limits assumed: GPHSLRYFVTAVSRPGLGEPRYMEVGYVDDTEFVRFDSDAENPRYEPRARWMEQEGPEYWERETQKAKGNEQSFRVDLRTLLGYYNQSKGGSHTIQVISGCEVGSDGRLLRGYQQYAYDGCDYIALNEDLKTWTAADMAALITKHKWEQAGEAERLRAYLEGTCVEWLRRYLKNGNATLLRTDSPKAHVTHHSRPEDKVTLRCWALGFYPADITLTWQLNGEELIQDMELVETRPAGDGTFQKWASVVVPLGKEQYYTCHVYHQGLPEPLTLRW
UniProt P01901, 22-369 limits assumed: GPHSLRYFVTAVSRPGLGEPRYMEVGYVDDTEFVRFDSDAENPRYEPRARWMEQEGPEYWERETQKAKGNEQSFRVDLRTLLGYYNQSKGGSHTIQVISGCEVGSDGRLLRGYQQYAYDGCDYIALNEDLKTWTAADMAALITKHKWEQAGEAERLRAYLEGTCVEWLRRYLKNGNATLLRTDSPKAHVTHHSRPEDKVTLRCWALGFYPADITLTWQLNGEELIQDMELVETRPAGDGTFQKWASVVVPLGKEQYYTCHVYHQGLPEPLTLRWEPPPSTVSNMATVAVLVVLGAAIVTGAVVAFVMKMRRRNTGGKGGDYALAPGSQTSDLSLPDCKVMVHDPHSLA

What was measured:
[1] = tested on: SIINFEKL-specific OT-I T cells; test: MHC I multimer staining of OT-I splenocytes (flow cytometry); details: exchange 30 min at room temperature
H-2K^b [2] = biological target: T1, H-2K^b (Mus musculus, UniProt P01901); test: Temperature-mediated peptide exchange on H-2K^b analyzed by gel filtration HPLC; assay type: binding; details: H-2K^b-FAPGNAPAL
H-2K^b [3] = biological target: T1, H-2K^b
H-2K^b [4] = biological target: T1, H-2K^b; details: affinity to H-2K^b, published evidence; cited from earlier work

SMILES	staining of OT-I T cells by exchanged H-2K^b multimers [1]	increase of exchange efficiency after 24 h (H-2K^b [2]; compared with 30 min) [%]	time to almost complete exchange of FAPGNAPAL (H-2K^b [2]; room temperature (20° C.)) [min]	Efficiency of exchange (H-2K^b [3]; 0.5 μM H-2K^b monomer folded with FAPGNAPAL, 50 μM exchange peptide, PBS, 45 min room temperature) [CYO]	Efficiency of exchange, monomer incubated in the absence of peptide (H-2K^b [3]; 0.5 μM H-2K^b monomer, no exchange peptide (—), label = peptide the monomer was folded with) [CYO]	Kd (H-2K^b [4]) [nM]
CC(C)C[C@H](NC(=O)[C@H](C)NC(=O)[C@@H]1CCCN1C(=O)[C@H](Cc1ccc(O)cc1)NC(=O)[C@H](CC(N)=O)NC(=O)CNC(=O)[C@@H]1CCCN1C(=O)[C@H](C)NC(=O)[C@@H](N)Cc1ccccc1)C(=O)O	No positive staining	–	–	–	–	–
CC[C@H](C)[C@H](NC(=O)[C@@H](NC(=O)[C@@H](N)CO)[C@@H](C)CC)C(=O)N[C@@H](CC(N)=O)C(=O)N[C@@H](Cc1ccccc1)C(=O)N[C@@H](CCC(=O)O)C(=O)N[C@@H](CCCCN)C(=O)N[C@@H](CC(C)C)C(=O)O	–	15	≤ 30	105.5 ± 4.7	107.4 ± 12.6	1.4
